{"source": "patent US7531312B2", "about": "“Simplified biological evaluation method of natural and artificial chemicals by using DNA injury index and apparatus therefor” (TAS Project Co., Ltd., priority 2000, dated 2009)", "system": "2′-deoxyguanosine (dG)", "conditions": "1%; KBrO3 30 minutes; pure water ctrl 3.779"}
{"smiles": "CO", "note": "[Meth, methanol]", "values": [{"measurement": "8OHdG × 10^−3", "value": 2.882, "unit": "mVs"}]}
